The target of this experiment is α4β1 integrin (Homo sapiens, UniProt P05556+P13612). Description: Inhibition of adhesion of calcein AM-labeled Ramos cells to CS1 (fibronectin) peptide-conjugated ovalbumin. Conditions: Table 1; Ramos cell adhesion to CS1-conjugated ovalbumin, 30 minutes at 37° C.

By UniProt entry, the sequences of proteins in these tests, tags left out. Residues count along the entry.
UniProt P05556, 21-798 limits assumed: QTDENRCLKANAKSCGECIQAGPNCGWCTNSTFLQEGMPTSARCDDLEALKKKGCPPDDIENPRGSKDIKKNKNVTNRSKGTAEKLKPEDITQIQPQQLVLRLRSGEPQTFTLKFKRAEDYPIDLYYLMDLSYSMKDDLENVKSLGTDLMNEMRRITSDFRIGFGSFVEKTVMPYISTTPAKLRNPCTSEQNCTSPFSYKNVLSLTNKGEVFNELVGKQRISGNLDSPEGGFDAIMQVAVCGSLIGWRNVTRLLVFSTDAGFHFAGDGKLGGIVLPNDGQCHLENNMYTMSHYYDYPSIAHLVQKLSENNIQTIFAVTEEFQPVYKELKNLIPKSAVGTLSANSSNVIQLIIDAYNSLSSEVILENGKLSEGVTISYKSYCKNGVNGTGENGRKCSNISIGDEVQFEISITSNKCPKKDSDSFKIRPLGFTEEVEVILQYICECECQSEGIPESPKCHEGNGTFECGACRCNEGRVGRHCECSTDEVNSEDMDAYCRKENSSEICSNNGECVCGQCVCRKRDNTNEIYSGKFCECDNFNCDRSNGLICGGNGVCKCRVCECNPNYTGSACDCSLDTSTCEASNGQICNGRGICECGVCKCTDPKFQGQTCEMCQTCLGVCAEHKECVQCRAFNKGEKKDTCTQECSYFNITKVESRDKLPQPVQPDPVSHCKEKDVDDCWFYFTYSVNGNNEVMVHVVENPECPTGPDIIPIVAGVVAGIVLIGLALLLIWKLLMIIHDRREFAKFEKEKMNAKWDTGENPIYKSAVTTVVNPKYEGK
UniProt P13612, 34-1032 limits assumed: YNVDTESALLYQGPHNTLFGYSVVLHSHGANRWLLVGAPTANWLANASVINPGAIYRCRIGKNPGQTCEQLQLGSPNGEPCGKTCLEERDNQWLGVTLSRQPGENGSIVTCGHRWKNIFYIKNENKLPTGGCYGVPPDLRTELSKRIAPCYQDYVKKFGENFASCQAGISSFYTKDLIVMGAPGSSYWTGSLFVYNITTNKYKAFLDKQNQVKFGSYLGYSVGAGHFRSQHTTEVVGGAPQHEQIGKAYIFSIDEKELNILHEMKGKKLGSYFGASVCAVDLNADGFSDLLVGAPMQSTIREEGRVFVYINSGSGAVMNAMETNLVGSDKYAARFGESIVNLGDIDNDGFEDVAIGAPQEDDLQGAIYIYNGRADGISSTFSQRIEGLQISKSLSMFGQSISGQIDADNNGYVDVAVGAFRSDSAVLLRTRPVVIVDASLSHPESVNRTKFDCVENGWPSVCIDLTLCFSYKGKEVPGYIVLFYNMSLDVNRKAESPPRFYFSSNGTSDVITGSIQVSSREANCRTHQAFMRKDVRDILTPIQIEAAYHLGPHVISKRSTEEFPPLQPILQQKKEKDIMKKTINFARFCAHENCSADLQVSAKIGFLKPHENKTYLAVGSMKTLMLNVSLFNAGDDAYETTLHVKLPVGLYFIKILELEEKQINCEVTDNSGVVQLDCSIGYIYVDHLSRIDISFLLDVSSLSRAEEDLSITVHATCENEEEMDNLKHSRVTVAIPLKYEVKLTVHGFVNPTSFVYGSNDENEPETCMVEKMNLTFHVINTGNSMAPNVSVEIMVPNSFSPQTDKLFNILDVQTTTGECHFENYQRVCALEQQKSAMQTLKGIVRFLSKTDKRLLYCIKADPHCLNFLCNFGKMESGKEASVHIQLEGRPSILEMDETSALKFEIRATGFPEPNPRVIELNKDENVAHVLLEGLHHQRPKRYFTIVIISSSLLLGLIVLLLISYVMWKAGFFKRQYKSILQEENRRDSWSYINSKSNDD

Drawing on US20030199692A1, “Propanoic acid derivatives that inhibit the binding of integrins to their receptors” (priority 1999, published 2003), this text covers IC50 for 1 molecule.

Turning to `CCCC[C@H](C(=O)N[C@@H](CC(=O)O)c1ccc2c(c1)OCO2)n1cc(C)cc(Cc2ccccc2)c1=O`, the IC50 (commonly the concentration at which inhibition is half-maximal) was 2000 nM.
